Laboratory results taken from BigSolDB 2.1.

CCCc1nn(C)c2c(=O)[nH]c(-c3cc(S(=O)(=O)N4CCN(C)CC4)ccc3OCC)nc12.O=C(O)CC(O)(CC(=O)O)C(=O)O
solubility (mole fraction)
Conditions | 293.2 K | 298.2 K | 303.2 K | 308.2 K | 313.2 K
in ethanol | 7.93e-05 | 0.000103 | 0.000122 | 0.000164 | 0.000226
in propylene glycol | 0.000297 | 0.000456 | 0.000619 | 0.000748 | 0.000934
